From paper PMC7723054
Some of the results follow.

Experiments:
Assay in all cases: FOREST: bead pull-down of RNA structure library v1, barcode microarray; U1A/LIN28A: 20 mM HEPES pH 7.5, 80 mM KCl, 20 mM NaCl, 10% glycerol, 2 mM DTT, 0.1 ug/uL BSA, 4 C; BG4/CIRBP/DHX36: 10 mM Tris-HCl pH 7.5, 100 mM KCl (or LiCl),; high values mean tight binding
LIN28A = biological target: T1, LIN28A (human?, UniProt Q9H9Z2 1-209)
T1 sequence: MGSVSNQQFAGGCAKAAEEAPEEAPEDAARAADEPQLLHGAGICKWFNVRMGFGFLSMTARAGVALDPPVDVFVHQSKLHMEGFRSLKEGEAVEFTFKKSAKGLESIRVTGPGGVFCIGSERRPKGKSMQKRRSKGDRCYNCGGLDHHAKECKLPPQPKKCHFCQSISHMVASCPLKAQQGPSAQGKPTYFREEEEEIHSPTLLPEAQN

CIRBP = biological target: T2, CIRBP (Homo sapiens, UniProt Q14011 1-172)
T2 sequence: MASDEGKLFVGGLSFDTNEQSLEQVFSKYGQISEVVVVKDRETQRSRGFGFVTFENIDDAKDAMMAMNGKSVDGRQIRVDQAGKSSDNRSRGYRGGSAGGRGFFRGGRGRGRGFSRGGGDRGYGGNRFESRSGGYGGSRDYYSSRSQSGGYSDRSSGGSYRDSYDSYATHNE

DHX36 = biological target: T3, DHX36 (Homo sapiens, UniProt Q9H2U1 1-1008)
T3 sequence: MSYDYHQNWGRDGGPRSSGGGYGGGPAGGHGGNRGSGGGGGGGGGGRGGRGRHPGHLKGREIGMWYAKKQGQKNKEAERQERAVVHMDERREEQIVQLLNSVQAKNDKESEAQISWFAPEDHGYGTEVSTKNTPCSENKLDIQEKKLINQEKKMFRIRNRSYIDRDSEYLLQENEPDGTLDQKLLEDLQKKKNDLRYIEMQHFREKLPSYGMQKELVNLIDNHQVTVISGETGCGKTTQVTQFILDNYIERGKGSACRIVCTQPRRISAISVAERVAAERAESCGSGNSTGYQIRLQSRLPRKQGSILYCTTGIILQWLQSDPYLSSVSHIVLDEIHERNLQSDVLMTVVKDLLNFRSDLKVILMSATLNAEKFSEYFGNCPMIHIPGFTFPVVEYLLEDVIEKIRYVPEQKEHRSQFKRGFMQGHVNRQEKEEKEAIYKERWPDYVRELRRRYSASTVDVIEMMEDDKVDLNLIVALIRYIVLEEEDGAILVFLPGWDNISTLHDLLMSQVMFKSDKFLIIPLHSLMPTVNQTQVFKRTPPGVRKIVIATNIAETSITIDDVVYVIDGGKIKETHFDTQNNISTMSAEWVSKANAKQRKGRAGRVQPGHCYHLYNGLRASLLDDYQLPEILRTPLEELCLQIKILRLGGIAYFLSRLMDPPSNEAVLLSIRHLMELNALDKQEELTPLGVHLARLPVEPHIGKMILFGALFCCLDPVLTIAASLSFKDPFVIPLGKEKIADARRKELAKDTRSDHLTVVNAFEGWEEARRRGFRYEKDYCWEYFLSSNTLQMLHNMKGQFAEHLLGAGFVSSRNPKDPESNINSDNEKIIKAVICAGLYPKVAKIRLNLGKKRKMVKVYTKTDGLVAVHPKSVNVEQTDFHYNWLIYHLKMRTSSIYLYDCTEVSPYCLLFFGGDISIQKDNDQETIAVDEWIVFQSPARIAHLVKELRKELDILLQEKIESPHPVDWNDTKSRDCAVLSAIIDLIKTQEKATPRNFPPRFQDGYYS

B1: hsa-mir-3913-1 (structured_RNA)
RNA: GGGAAAUAGGCGACGAACACCUGAAUACGGUGUACGAAGUUUCAGCGUCUGCCAAAACCUUGGCAGACGCUGAAGCUUCGUGCAC
- binding signal (LIN28A): -0.877 z-score
- binding signal (CIRBP): 0.032 z-score
- binding signal (DHX36): -0.225 z-score

B2: hsa-mir-3614 (structured_RNA)
RNA: GGGAAGCGCUCGGGUUCACAACUAUCGGGGUGUACGAAGUUUCAGCGCUGCCCCUUUGCUCUCUGGGGUAGCGCUGAAGCUUCGUGCAC
- binding signal (LIN28A): -0.831 z-score
- binding signal (CIRBP): 0.664 z-score
- binding signal (DHX36): -0.241 z-score

B3: hsa-mir-15a (structured_RNA)
RNA: GGGACGAAGGUCGACCUGAUCAACGUCAGGUGUACGAAGUUUCAGCUUUGUGGAUUUUGAAAAGGUGCAGGGCUGAAGCUUCGUGCAC
- binding signal (LIN28A): -0.858 z-score
- binding signal (CIRBP): -0.971 z-score
- binding signal (DHX36): -0.872 z-score

B4: hsa-mir-181b-2 (structured_RNA)
RNA: GGGAGCGGAUAGUUCAAGCAUAUGAAGUGGUGUACGAAGUUUCAGCUGGGUUUGAGUCUGAAUCAACUCAGCUGAAGCUUCGUGCAC
- binding signal (LIN28A): -0.852 z-score
- binding signal (CIRBP): 0.534 z-score
- binding signal (DHX36): -0.961 z-score

B5: hsa-mir-5089 (structured_RNA)
RNA: GGGAACUCGGGCGCAAACUCAUCACGAUGGUGUACGAAGUUUCAGCGCAUCCUUGGAAUCUGCACUCAAGGGAUGCGCUGAAGCUUCGUGCAC
- binding signal (LIN28A): -0.849 z-score
- binding signal (CIRBP): -0.259 z-score
- binding signal (DHX36): -0.49 z-score

B6: hsa-mir-510 (structured_RNA)
RNA: GGGAAAACACUAACAUCGGCUUUACCUCGGUGUACGAAGUUUCAGCCAAUCACAUGUAAUUAGGUGUGAUUGGCUGAAGCUUCGUGCAC
- binding signal (LIN28A): -0.828 z-score
- binding signal (CIRBP): -0.545 z-score
- binding signal (DHX36): -1.16 z-score

B7: hsa-mir-4535 (structured_RNA)
RNA: GGGACUCCAUCCCAUCAGGCAUUAUCCGGGUGUACGAAGUUUCAGCUCACAGUUGGUUUCUGACACGUGGGCUGAAGCUUCGUGCAC
- binding signal (LIN28A): -0.906 z-score
- binding signal (CIRBP): -0.135 z-score
- binding signal (DHX36): -1.31 z-score

B8: hsa-mir-197 (structured_RNA)
RNA: GGGAAAGCCGCUAAGGGUAUUCAGAUAGGGUGUACGAAGUUUCAGCUGGGAGGUAAGAGCUCUUCACCCUUCAGCUGAAGCUUCGUGCAC
- binding signal (LIN28A): -0.893 z-score
- binding signal (CIRBP): 0.709 z-score
- binding signal (DHX36): -0.227 z-score

B9: hsa-mir-422a (structured_RNA)
RNA: GGGACGACGCUCUGAGACCCAACUUGUAGGUGUACGAAGUUUCAGCAGGCCUGAGUCUCUCUGCUGCAGAUGGGCUCGCUGAAGCUUCGUGCAC
- binding signal (LIN28A): -0.89 z-score
- binding signal (CIRBP): -0.682 z-score
- binding signal (DHX36): -0.0444 z-score

B10: hsa-mir-4695 (structured_RNA)
RNA: GGGACCCCUAUUACUUUGCAAGGCUGGAGGUGUACGAAGUUUCAGCCAGGCGGGGCAGCCCAAUGCCAUGGGCCUGAUGCUGAAGCUUCGUGCAC
- binding signal (LIN28A): -0.84 z-score
- binding signal (CIRBP): 0.00682 z-score
- binding signal (DHX36): -0.592 z-score

B11: hsa-mir-3609 (structured_RNA)
RNA: GGGAAAUACUUCAACGUUGCGGCCAGUCGGUGUACGAAGUUUCAGCUCCUUUUCUCUACCUUGUAGAGAAGCAGCUGAAGCUUCGUGCAC
- binding signal (LIN28A): -0.867 z-score
- binding signal (CIRBP): -0.899 z-score
- binding signal (DHX36): -0.297 z-score

B12: hsa-mir-4494 (structured_RNA)
RNA: GGGAUAUUAGCGUCGGUCUGGUACCCACGGUGUACGAAGUUUCAGCCUGAAAAUACAAAAUGGAAAAUUCCAGGCUGAAGCUUCGUGCAC
- binding signal (LIN28A): -0.852 z-score
- binding signal (CIRBP): -0.491 z-score
- binding signal (DHX36): -1.07 z-score

B13: hsa-mir-6825 (structured_RNA)
RNA: GGGAAAGACGCUCUGGUGCGAAAGACCCGGUGUACGAAGUUUCAGCGCAUGGGGCUAGGAGGCCCCGCGCGCUGAAGCUUCGUGCAC
- binding signal (LIN28A): -0.843 z-score
- binding signal (CIRBP): 0.114 z-score
- binding signal (DHX36): -0.499 z-score

B14: hsa-mir-6126 (structured_RNA)
RNA: GGGAAGUGGGACCGAACGACUUGUUUAAGGUGUACGAAGUUUCAGCGAGACACUCGCUGAAGCUUCGUGCAC
- binding signal (LIN28A): -0.831 z-score
- binding signal (CIRBP): -0.885 z-score
- binding signal (DHX36): -0.425 z-score

B15: hsa-mir-3649 (structured_RNA)
RNA: GGGACAUGGGCUCGUACAGCGAACUUCAGGUGUACGAAGUUUCAGCACCUGUGUGUGCCCAAGUGUUUCUAGCAAACACAGGGGCUGAAGCUUCGUGCAC
- binding signal (LIN28A): -0.863 z-score
- binding signal (CIRBP): -1 z-score
- binding signal (DHX36): -0.713 z-score

B16: hsa-mir-3667 (structured_RNA)
RNA: GGGACAUACGGAAUUGCGCGUGGAGUCGGGUGUACGAAGUUUCAGCAGGUUCUGCUGGCUGAGAACCUGCUGAAGCUUCGUGCAC
- binding signal (LIN28A): -0.86 z-score
- binding signal (CIRBP): -0.467 z-score
- binding signal (DHX36): -0.4 z-score

B17: hsa-mir-548ap (structured_RNA)
RNA: GGGAAACAAUCUGACGGUCUGCUGAAUUGGUGUACGAAGUUUCAGCCUUUGUCAUUAAAACCAAUAACAAAAGCUGAAGCUUCGUGCAC
- binding signal (LIN28A): -0.862 z-score
- binding signal (CIRBP): -1.22 z-score
- binding signal (DHX36): -0.707 z-score

B18: hsa-mir-6811 (structured_RNA)
RNA: GGGAAAGCUACGCGCUCCGUUCUCGAUGGGUGUACGAAGUUUCAGCCACUCAGGCAGUGCCAUGAGCGCUGAAGCUUCGUGCAC
- binding signal (LIN28A): -0.909 z-score
- binding signal (CIRBP): -0.0692 z-score
- binding signal (DHX36): -0.00164 z-score

B19: hsa-mir-6766 (structured_RNA)
RNA: GGGAUCGAAUGGCAGAAGAUCACCUCCGGGUGUACGAAGUUUCAGCAUUGAGAGUUCCUUCUCCUGCUCCUGAUGCUGAAGCUUCGUGCAC
- binding signal (LIN28A): -0.883 z-score
- binding signal (CIRBP): -0.199 z-score
- binding signal (DHX36): -0.406 z-score

B20: hsa-mir-607 (structured_RNA)
RNA: GGGAAAAUUGGGUUAGUGGACCACCAGCGGUGUACGAAGUUUCAGCGAACCCAGGGAGCCAGACUGCCUGGGUUCGCUGAAGCUUCGUGCAC
- binding signal (LIN28A): -0.817 z-score
- binding signal (CIRBP): 0.437 z-score
- binding signal (DHX36): -0.223 z-score

B21: hsa-mir-3197 (structured_RNA)
RNA: GGGAAAUUAGCACAGGUCACUUAAGGCUGGUGUACGAAGUUUCAGCGGCGCGCGAGGCUCCAGGCUCCGCUGAAGCUUCGUGCAC
- binding signal (LIN28A): -0.869 z-score
- binding signal (CIRBP): -0.341 z-score
- binding signal (DHX36): -0.826 z-score

B22: hsa-mir-6074 (structured_RNA)
RNA: GGGCAAACGAAAUGUCGUCCCAGGCAGGGGUGUACGAAGUUUCAGCUUGCUCUUUGGUGGAGAUAGCUGAAGCUUCGUGCAC
- binding signal (LIN28A): -0.913 z-score
- binding signal (CIRBP): -0.138 z-score
- binding signal (DHX36): 0.583 z-score

B23: hsa-mir-8052 (structured_RNA)
RNA: GGGAGCAAGGCAGUUAUAUAAUCCCUGUGGUGUACGAAGUUUCAGCGAGCUCAGGAGCUCGCUGAAGCUUCGUGCAC
- binding signal (LIN28A): -0.912 z-score
- binding signal (CIRBP): -0.906 z-score
- binding signal (DHX36): -0.771 z-score

B24: hsa-mir-4688 (structured_RNA)
RNA: GGGAAUUUUGGGCCCAUCUACGGAACACGGUGUACGAAGUUUCAGCCCUCCCUAGGGGAUCCCAGGUAGGGCUGAAGCUUCGUGCAC
- binding signal (LIN28A): -0.829 z-score
- binding signal (CIRBP): -0.28 z-score
- binding signal (DHX36): -0.597 z-score

B25: hsa-mir-3125 (structured_RNA)
RNA: GGGACCGUUAAAGGUUCGCAUGAGGGUGGGUGUACGAAGUUUCAGCGAGAACUCACGGUGCCUGUGGUUCGAGCUGAAGCUUCGUGCAC
- binding signal (LIN28A): -0.84 z-score
- binding signal (CIRBP): -0.0333 z-score
- binding signal (DHX36): 0.251 z-score

B26: hsa-mir-374c (structured_RNA)
RNA: GGGAAAGCCGAACUAGAAACUCUGCCCUGGUGUACGAAGUUUCAGCAGUGCUAGGACACUGCUGAAGCUUCGUGCAC
- binding signal (LIN28A): -0.828 z-score
- binding signal (CIRBP): 0.533 z-score
- binding signal (DHX36): -0.553 z-score
